{"sequences": {"note": "Amino acid sequences for entries named in this document (tags omitted).", "UniProt P31652, whole entry, looked up": "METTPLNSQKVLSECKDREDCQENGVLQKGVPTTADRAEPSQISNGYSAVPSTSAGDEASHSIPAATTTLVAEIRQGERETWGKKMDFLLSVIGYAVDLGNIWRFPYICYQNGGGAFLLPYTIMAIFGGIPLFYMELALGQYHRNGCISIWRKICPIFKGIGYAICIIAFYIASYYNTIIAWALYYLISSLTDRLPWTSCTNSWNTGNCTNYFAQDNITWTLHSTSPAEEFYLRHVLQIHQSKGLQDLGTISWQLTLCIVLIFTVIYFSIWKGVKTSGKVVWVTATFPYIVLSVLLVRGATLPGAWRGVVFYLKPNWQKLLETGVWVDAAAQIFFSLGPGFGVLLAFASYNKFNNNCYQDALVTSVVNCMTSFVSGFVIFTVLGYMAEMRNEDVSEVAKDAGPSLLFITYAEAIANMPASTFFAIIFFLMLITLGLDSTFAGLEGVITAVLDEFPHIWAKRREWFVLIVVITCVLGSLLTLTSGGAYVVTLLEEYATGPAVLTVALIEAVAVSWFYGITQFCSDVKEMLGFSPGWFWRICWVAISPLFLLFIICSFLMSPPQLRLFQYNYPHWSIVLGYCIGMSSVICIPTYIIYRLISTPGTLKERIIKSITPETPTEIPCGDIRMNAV"}, "source": "patent US7550588B2", "about": "“Homotropanes with central nervous system activity” (The Research Foundation of State University of New York, priority 2006, dated 2009)", "biological_target": "serotonin transporter (SERT) (Rattus norvegicus, UniProt P31652)", "test": "Displacement of [3H]paroxetine binding at 5-HT transport sites in rat frontal cortex membranes", "data": [{"smiles": "CCC(=O)C1C2CCC(CC1c1ccc(C)cc1)N(C)C2", "note": "(stereo not drawn) [compound 23, 6-Methyl-2α-propionyl-3β-(p-tolyl)-6-azabicyclo[3.2.2]nonane]", "values": [{"measurement": "Ki", "setting": "read-out: Binding (nM) SERT, [3H]paroxetine 0.4 nM, rat frontal cortex membranes, Cheng-Prusoff, mean ± S.E.M., tested as racemates", "value": "> 2500", "unit": "nM"}, {"measurement": "binding affinity at SERT (in words)", "setting": "summary of Table 1", "value": "very low binding affinity"}]}]}
